In ChEMBL document CHEMBL1140446, “Designed multiple ligands. An emerging drug discovery paradigm” (J Med Chem, 2005) one finds Log Ki data, which are given here for one molecule.

Sequences of proteins named here, by UniProt entry; tags and fusion partners are left off.
UniProt P31645, whole entry: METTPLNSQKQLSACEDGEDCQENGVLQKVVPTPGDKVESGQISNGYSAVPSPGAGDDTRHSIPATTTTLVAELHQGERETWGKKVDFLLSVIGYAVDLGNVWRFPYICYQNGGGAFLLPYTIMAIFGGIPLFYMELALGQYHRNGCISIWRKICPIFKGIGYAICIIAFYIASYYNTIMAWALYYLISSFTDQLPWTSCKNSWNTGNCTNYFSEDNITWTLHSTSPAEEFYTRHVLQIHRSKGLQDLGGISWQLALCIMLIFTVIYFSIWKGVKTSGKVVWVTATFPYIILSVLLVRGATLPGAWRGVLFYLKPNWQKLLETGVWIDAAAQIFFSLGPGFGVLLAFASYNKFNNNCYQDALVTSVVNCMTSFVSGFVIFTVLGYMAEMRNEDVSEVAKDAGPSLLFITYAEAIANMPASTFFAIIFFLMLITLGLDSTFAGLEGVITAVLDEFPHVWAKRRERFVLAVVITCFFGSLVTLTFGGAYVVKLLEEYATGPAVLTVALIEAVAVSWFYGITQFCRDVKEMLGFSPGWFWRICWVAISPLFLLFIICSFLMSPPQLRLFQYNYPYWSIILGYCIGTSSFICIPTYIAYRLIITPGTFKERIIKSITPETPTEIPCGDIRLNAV
UniProt P25103, whole entry: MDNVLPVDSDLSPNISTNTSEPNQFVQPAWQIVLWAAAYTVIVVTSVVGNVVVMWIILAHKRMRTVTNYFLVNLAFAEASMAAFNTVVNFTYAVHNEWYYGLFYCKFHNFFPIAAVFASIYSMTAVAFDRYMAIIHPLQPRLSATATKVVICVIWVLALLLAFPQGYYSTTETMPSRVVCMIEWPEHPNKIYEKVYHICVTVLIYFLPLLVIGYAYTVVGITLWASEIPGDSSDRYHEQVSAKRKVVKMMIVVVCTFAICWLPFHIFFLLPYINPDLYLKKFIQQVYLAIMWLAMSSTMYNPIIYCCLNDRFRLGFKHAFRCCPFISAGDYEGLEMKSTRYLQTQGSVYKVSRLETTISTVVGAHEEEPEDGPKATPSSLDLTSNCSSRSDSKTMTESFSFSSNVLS

Only a part of the results on these compounds is given; other tests are left out.

The target in assay [1] is Sodium-dependent serotonin transporter (Homo sapiens, UniProt P31645). Kind of assay: Negative logarithm causing 50% receptor occupancy against serotonin transporter.
In a further assay the target is Substance-P receptor (Homo sapiens, UniProt P25103). Description: Negative logarithm causing 50% receptor occupancy against tachykinin receptor 1.

In the case of `Cc1cc(C)cc(OCC(=O)N(c2ccc(Cl)c(Cl)c2)C2CCNCC2)c1`, the figures for the Log Ki (in assay [1]; at Substance-P receptor) were -7.5 and -7.6, respectively.
